Cyclic peptide permeability, from CycPeptMPDB

PAMPA measures passive passage through an artificial lipid membrane. Permeability is given as log10 of P in cm/s; higher (less negative) is more permeable.

* CC(C)C[C@@H]1NC(=O)[C@H](C)NC(=O)[C@@H]2CCCN2C(=O)[C@H](Cc2ccccc2)NC(=O)[C@@H](CC(C)C)NC(=O)[C@H]2CCCN2C(=O)[C@@H](CC(C)C)NC1=O: PAMPA -6.69 (log10 cm/s)
* CCCN1CC(=O)N[C@@H](CC(C)C)C(=O)N[C@@H](Cc2ccccc2)CC(=O)N2CCC[C@@H]2C(=O)N[C@H](CC(C)C)C(=O)N[C@@H](Cc2ccccc2)C(=O)N2CCC[C@H]2C1=O: PAMPA -6.50 (log10 cm/s)
* CC(C)C[C@@H]1C(=O)N2CCC[C@H]2C(=O)N(C)[C@H](CC(C)C)C(=O)N[C@@H](Cc2ccccc2)C(=O)N2CCC[C@@H]2C(=O)N(C)[C@H](C)C(=O)N[C@H](CC(C)C)C(=O)N1C: PAMPA -5.05 (log10 cm/s)
* CC(C)C[C@H]1NC(=O)C[C@H](Cc2ccccc2)NC(=O)[C@@H]2CCCN2C(=O)[C@H](Cc2ccccc2)NC(=O)[C@@H](CC(C)C)NC(=O)[C@@H]2CCCN2C(=O)[C@@H](CC(C)C)NC1=O: PAMPA -5.78 (log10 cm/s)
* CC(C)C[C@@H]1NC(=O)[C@@H](C)NC(=O)[C@@H]2CCCN2C(=O)[C@H](Cc2ccccc2)NC(=O)[C@@H](CC(C)C)NC(=O)[C@@H]2CCCN2C(=O)[C@@H](CC(C)C)NC1=O: PAMPA -6.65 (log10 cm/s)
* CC(C)C[C@H]1C(=O)N[C@@H](Cc2ccccc2)C(=O)N2CCC[C@@H]2C(=O)N[C@H](C)C(=O)N(Cc2ccccc2)CC(=O)N[C@@H](Cc2ccccc2)CC(=O)N2CCC[C@@H]2C(=O)N1C: PAMPA -6.09 (log10 cm/s)
* CCCN1CC(=O)N(C)[C@@H](CC(C)C)C(=O)N[C@@H](CC(C)C)C(=O)N2CCC[C@H]2C(=O)N[C@H](CC(C)C)C(=O)N[C@@H](Cc2ccccc2)C(=O)N2CCC[C@H]2C1=O: PAMPA -5.62 (log10 cm/s)
* CC(C)C[C@@H]1NC(=O)[C@H](C)NC(=O)[C@@H]2CCCN2C(=O)[C@H](Cc2ccccc2)NC(=O)CN(Cc2ccccc2)C(=O)[C@@H]2CCCN2C(=O)[C@@H](CC(C)C)N(C)C1=O: PAMPA -5.95 (log10 cm/s)
* CCCN1CC(=O)N[C@@H](CC(C)C)C(=O)N[C@H](CC(C)C)C(=O)N2CCC[C@H]2C(=O)N(C)[C@H](CC(C)C)C(=O)N[C@@H](Cc2ccccc2)C1=O: PAMPA -4.93 (log10 cm/s)
* CC(C)C[C@@H]1NC(=O)[C@H]2CCCN2C(=O)[C@@H](CC(C)C)NC(=O)CN(Cc2ccccc2)C(=O)C[C@H](Cc2ccccc2)NC(=O)[C@H]2CCCN2C(=O)[C@H](Cc2ccccc2)NC1=O: PAMPA -6.17 (log10 cm/s)
* CC(C)C[C@@H]1C(=O)N2CCC[C@H]2C(=O)N(C)[C@H](CC(C)C)C(=O)N[C@@H](Cc2ccccc2)C(=O)N2CCC[C@H]2C(=O)N[C@H](C)C(=O)N(C)[C@@H](CC(C)C)C(=O)N1C: PAMPA -5.68 (log10 cm/s)
* CC(C)C[C@H]1NC(=O)[C@H]2CCCN2C(=O)CN(Cc2ccccc2)C(=O)[C@@H](CC(C)C)NC(=O)[C@@H](C)NC(=O)[C@H]2CCCN2C(=O)[C@H](Cc2ccccc2)NC1=O: PAMPA -6.08 (log10 cm/s)
* CC(C)C[C@@H]1C(=O)N(C)[C@@H](CC(C)C)C(=O)N2CCC[C@H]2C(=O)N(C)[C@H](CC(C)C)C(=O)N[C@@H](Cc2ccccc2)C(=O)N2CCC[C@@H]2C(=O)N[C@H](C)C(=O)N1C: PAMPA -5.13 (log10 cm/s)
* CC(C)C[C@@H]1NC(=O)[C@H](C)N(C)C(=O)[C@H](Cc2ccccc2)NC(=O)[C@H](CC(C)C)N(C)C(=O)[C@@H]2CCCN2C(=O)CN(Cc2ccccc2)C1=O: PAMPA -5.15 (log10 cm/s)
* CCCN1CC(=O)N[C@@H](CC(C)C)C(=O)N[C@@H](CC(C)C)C(=O)N2CCC[C@H]2C(=O)N(Cc2ccccc2)CC(=O)N[C@@H](Cc2ccccc2)C1=O: PAMPA -5.42 (log10 cm/s)
* CC(C)C[C@@H]1C(=O)N(C)[C@@H](CC(C)C)C(=O)N2CCC[C@@H]2C(=O)N(C)[C@@H](CC(C)C)C(=O)N[C@@H](Cc2ccccc2)C(=O)N[C@@H](C)C(=O)N1C: PAMPA -5.00 (log10 cm/s)
* CC(C)C[C@@H]1NC(=O)[C@H](C)N(C)C(=O)[C@H]2CCCN2C(=O)[C@H](Cc2ccccc2)NC(=O)CN(Cc2ccccc2)C(=O)[C@H]2CCCN2C(=O)[C@@H](CC(C)C)NC1=O: PAMPA -5.68 (log10 cm/s)

The 2 lowest values of PAMPA among the entries above:

{"smiles": "CC(C)C[C@@H]1NC(=O)[C@H](C)NC(=O)[C@@H]2CCCN2C(=O)[C@H](Cc2ccccc2)NC(=O)[C@@H](CC(C)C)NC(=O)[C@H]2CCCN2C(=O)[C@@H](CC(C)C)NC1=O", "PAMPA (log10 cm/s)": "-6.69"}
{"smiles": "CC(C)C[C@@H]1NC(=O)[C@@H](C)NC(=O)[C@@H]2CCCN2C(=O)[C@H](Cc2ccccc2)NC(=O)[C@@H](CC(C)C)NC(=O)[C@@H]2CCCN2C(=O)[C@@H](CC(C)C)NC1=O", "PAMPA (log10 cm/s)": "-6.65"}

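Conditions beyond the assay type are not listed; see the original paper. Other peptides of the study may be missing here. Entries at the database's floor value (log10 P of -10) are not listed.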

Values of Townsend et al. 2020, doi:10.26434/chemrxiv.13335941.v1, as listed in CycPeptMPDB.